From PubChem BioAssay (Tox21)
Where “and” joins values, the source holds several entries; their conditions need not be identical. Identical values can stand only once. The list shows a part of the results, in another mix than the full data. Records with an inconclusive call do not appear. Calls of active or inactive are those of the source. Calls come from the whole dose curve.

Test: p53 small molecule agonists, cell-based qHTS assay with rat liver microsomes: qHTS cell viability counter screen (AID 1963580); note: nearly all actives have a fitted effect of over 45% in size
Conditions: p53RE-bla HCT-116 + rat microsomes, ATP viability, 16 h; at 30.3 µM (top of the series)
Text: National Center for Advancing Translational Sciences [NCATS]
Division of Preclinical Innovation [DPI]
U.S. Environmental Protection Agency [EPA]
National Institutes of Environmental Health Sciences [NIEHS]
National Toxicology Program [NTP]
U.S. Food and Drug Administration [FDA]
p53, a tumor suppressor protein, is activated following cellular insult, including DNA damage and other cellular stresses. The activation of p53 regulates cell fate by inducing DNA repair, cell cycle arrest, apoptosis, or cellular senescence. The activation of p53, therefore, is a good indicator of DNA damage and other cellular stresses. The CellSensor p53RE-bla HCT-116 cell line contains a stably integrated beta-lactamase reporter gene under control of the p53 response elements. The activation of the reporter gene under culture conditions can be detected by fluorescence intensity. This cell line was used to screen the Tox21 10K compound library in the condition of presence of rat liver microsomes and to identify agonists that activate the p53 signaling pathway after in vitro metabolic activation (Ooka et al., Archive of Toxicology 96:1975-1987, 2022). The cytotoxicity of the Tox21 compound library against the p53 RE-bla HCT-116 cell line was tested in parallel by measuring the intra cellular ATP content in the same wells.
Tox21 Assay Protocol Summary:
The p53RE-bla cells were dispensed at 4,000cells/3ul/well in 1536-well black-clear bottom plates. After the assay plates were incubated at 37 C, 5% CO2 incubator for 5 hours, 23 nL of compounds dissolved in DMSO, positive controls or DMSO only was transferred to the assay plate. Following compound addition, 3 uL of rat liver microsomes (Molecular Toxicology, Boone, NC) at final concentration of 0.5 mg/mL and 1uL of B-Nicotinamide adenine dinucleotide 2'-phosphate (NADPH) at final concentration of 0.5 mg/mL were transferred to the assay plate. The plates were incubated at 37 C for 16 hours. 1 uL of LiveBLAzer detection mixture was added to each well and the plates were incubated at room temperature in the dark for 2 h. Fluorescence intensity at 460 and 530 nm emission and 405 nm excitation were measured by an Envision plate reader. For cell viability readout that measures cytotoxicity, 4 ul/well of CellTiter-Glo reagent was added into the assay plates using a Flying Reagent Dispenser. After 30 min incubation at room temperature, the luminescence intensity in the plates was measured using a ViewLux plate reader.
% is set by controls: 0 for no effect and ±100 for the full control effect.

**Q.** With `OCCSCCO` as the compound, how does the activity change, negative = cytotoxicity read?
**A.** inactive: 1.25%

**Q.** Which activity change, negative = cytotoxicity does the source give for `CCOP(=O)(CC)Oc1ccc([N+](=O)[O-])cc1` (centres undefined) here?
**A.** inactive: 0.484%

**Q.** With `C/C1=C2N=C(/C=C3N=C(/C(C)=C4\[N-][C@@](C)([C@@H]5N=C1[C@](C)(CCC(=O)NC[C@@H](C)OP(=O)([O-])O[C@H]1[C@@H](O)[C@@H](n6cnc7cc(C)c(C)cc76)O[C@@H]1CO)[C@H]5CC(N)=O)[C@@](C)(CC(N)=O)[C@@H]4CCC(N)=O)[C@@](C)(CC(N)=O)[C@@H]\3CCC(N)=O)C(C)(C)[C@@H]/2CCC(N)=O.[C-]#N.[Co+3]` as the compound, how does the activity change, negative = cytotoxicity read?
**A.** inactive: -11.4%

Same assay, conditions: p53RE-bla HCT-116 + rat microsomes, ATP viability, 16 h; at 66 µM (top of the series)

**Q.** With `COP(C)(=O)OC` as the compound, how does the activity change, negative = cytotoxicity read?
**A.** inactive: -23.2% and inactive: 6.21%

**Q.** For `CCOP(=O)(CC)OCC`, which activity change, negative = cytotoxicity is on record?
**A.** inactive: 2.16%

**Q.** For `Nc1cc([N+](=O)[O-])cc([N+](=O)[O-])c1O`, which activity change, negative = cytotoxicity is on record?
**A.** inactive: -10.5%

**Q.** For `Cc1ccc([N+](=O)[O-])cc1[N+](=O)[O-]`, which activity change, negative = cytotoxicity is on record?
**A.** inactive: -4.7% and inactive: 4.18%

**Q.** For `O=[N+]([O-])[O-].[NH4+]`, which activity change, negative = cytotoxicity is on record?
**A.** inactive: 0.728% and inactive: 0.396%

**Q.** Which activity change, negative = cytotoxicity does the source give for `OCCSCCO` here?
**A.** inactive: -7.02%

**Q.** With `CCN(CC)CCCl` as the compound, how does the activity change, negative = cytotoxicity read?
**A.** inactive: -1.04%

**Q.** With `O=[N+]([O-])OCC(CO[N+](=O)[O-])(CO[N+](=O)[O-])CO[N+](=O)[O-]` as the compound, how does the activity change, negative = cytotoxicity read?
**A.** inactive: 18.3%

**Q.** Which activity change, negative = cytotoxicity does the source give for `N#CBr` here?
**A.** inactive: 2.32%

**Q.** With `[NH4+].[O-][Cl+3]([O-])([O-])[O-]` as the compound, how does the activity change, negative = cytotoxicity read?
**A.** inactive: 12.3% and inactive: 0.608%

**Q.** With `COc1ccc([N+](=O)[O-])cc1[N+](=O)[O-]` as the compound, how does the activity change, negative = cytotoxicity read?
**A.** inactive: 3.79%

**Q.** Which activity change, negative = cytotoxicity does the source give for `N=C(N)N[N+](=O)[O-]` here?
**A.** inactive: 6.97%

**Q.** Which activity change, negative = cytotoxicity does the source give for `CN(C)CCCl` here?
**A.** inactive: -2.24%

**Q.** For `CC(C)N(CCO)C(C)C`, which activity change, negative = cytotoxicity is on record?
**A.** inactive: -9.04%

**Q.** Which activity change, negative = cytotoxicity does the source give for `Cc1c([N+](=O)[O-])cccc1[N+](=O)[O-]` here?
**A.** inactive: 0.0296% and inactive: -3.47%

**Q.** For `CP(=O)(O)OCCC[Si](O)(O)O`, which activity change, negative = cytotoxicity is on record?
**A.** inactive: 6.69%
